This note sets out measurements from patent US4342828A, “Method for producing substance capable of stimulating differentiation and proliferation of human granulopoietic stem cells” (Morinaga Milk Industry Co., Ltd., priority 1979, dated 1982).

The test system of this assay is monocytes and macrophages. Briefly: CSF production by glycoprotein-treated human monocytes and macrophages (CSF activity of conditioned medium, human bone marrow colony formation). The assay is classed as cell-based. Conditions: serum-free McCoy's 5A, 10^5 cells/ml, 3 days.

For “human serum albumin: human serum albumin (Sigma Co.) added in an amount corresponding to that contained in the fraction media”, the CSF activity by setting is: (added amount 0.5 mg/ml (control: human serum albumin in corresponding amount)) 4 ± 1 number of colonies per 0.1 ml; (added amount 1.0 mg/ml (control: human serum albumin in corresponding amount)) 6 ± 2 number of colonies per 0.1 ml; (added amount 5.0 mg/ml (control: human serum albumin in corresponding amount)) 14 ± 2 number of colonies per 0.1 ml; (added amount 10.0 mg/ml (control: human serum albumin in corresponding amount)) 26 ± 1 number of colonies per 0.1 ml.
